Source: ChEMBL document CHEMBL1133118 (J Med Chem, 2000)

Target: T1, Adenosine receptor A2b (Homo sapiens, UniProt P29275)
T1 sequence (P29275 whole entry): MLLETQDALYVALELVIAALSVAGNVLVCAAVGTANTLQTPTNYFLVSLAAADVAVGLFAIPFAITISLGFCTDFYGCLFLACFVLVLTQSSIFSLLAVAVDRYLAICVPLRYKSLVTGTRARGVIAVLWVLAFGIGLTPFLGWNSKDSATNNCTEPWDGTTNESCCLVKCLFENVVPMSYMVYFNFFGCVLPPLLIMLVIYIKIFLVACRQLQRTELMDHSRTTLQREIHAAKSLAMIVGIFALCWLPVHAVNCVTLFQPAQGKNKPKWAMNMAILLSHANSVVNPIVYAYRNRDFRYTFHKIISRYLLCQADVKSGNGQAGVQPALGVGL
Assay: biochemical

Nc1nc2ccc(Cl)cc2c2nc(-c3ccco3)nn12 [CGS-15943]
Ki: 23 nM
